pEC50: −log10 of the molar value.
Key:
human APJ receptor = target: T1, human APJ receptor (Homo sapiens, UniProt P35414); test: [35S] GTPγS assay, human APJ receptor; format: biochemical
T1 construct: expressed in transfected cells
T1 sequence (P35414 1-380): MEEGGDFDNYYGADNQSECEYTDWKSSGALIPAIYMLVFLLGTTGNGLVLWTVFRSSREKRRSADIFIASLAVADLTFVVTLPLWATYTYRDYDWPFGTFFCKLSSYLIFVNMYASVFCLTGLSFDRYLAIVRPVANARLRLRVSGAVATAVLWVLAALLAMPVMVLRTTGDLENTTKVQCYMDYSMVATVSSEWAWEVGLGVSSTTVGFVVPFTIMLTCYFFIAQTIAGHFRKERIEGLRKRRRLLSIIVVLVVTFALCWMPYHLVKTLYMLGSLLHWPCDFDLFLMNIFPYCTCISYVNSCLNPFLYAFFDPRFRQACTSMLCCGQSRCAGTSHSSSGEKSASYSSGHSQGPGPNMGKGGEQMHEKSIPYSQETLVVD

rat APJ receptor = target: T2, rat APJ receptor (Rattus norvegicus, UniProt Q9JHG3); test: [35S] GTPγS assay, rat APJ receptor; format: biochemical
T2 construct: expressed in transfected cells
T2 sequence (Q9JHG3 1-377): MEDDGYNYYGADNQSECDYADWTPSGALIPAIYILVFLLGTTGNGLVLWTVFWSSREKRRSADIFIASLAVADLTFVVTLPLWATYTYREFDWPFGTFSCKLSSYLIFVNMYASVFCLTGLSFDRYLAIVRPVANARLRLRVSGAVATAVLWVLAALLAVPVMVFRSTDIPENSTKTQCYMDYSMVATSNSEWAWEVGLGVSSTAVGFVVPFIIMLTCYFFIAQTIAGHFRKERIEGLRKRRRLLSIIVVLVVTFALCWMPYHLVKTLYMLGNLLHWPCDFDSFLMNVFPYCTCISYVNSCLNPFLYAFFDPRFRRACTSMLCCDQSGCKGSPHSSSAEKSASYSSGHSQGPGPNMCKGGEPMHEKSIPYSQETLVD
Protocol: The membranes were incubated with modified peptides in the assay buffer. […] Bound [^35S] GTPγS was separated from free radiolabel by filtration. The filter bound radioactivity was determined by liquid scintillation counting.

With `CC[C@H](C)[C@H](NC(=O)[C@H](CC(C)C)NC(=O)[C@H](CCCNC(=N)N)NC(=O)[C@H](CCCCN)NC(=O)[C@H](Cc1ccc(O)cc1)NC(=O)[C@H](Cc1ccccc1)NC(=O)[C@H](CC(=O)O)NC(=O)[C@H](CO)NC(C)=O)C(=O)N[C@@H](CC(N)=O)C(=O)N[C@@H](CCCCN)C(=O)N[C@@H](C)C(=O)N[C@@H](CCCCN)C(=O)NCCOCCOCC(=O)NCCOCCOCC(=O)N[C@@H](CCCCNC(=N)N)C(=O)N[C@H](CCCNC(=N)N)C(=O)N[C@@H](CCC(N)=O)C(=O)N[C@@H](CCCCNC(=N)N)C(=O)N1CCC[C@H]1C(=O)N[C@H](CCCNC(=N)N)C(=O)N(C)[C@@H](CC(C)C)C(=O)N[C@@H](CO)C(=O)N[C@@H](Cc1c[nH]cn1)C(=O)N[C@@H](CCCCN)C(=O)NCC(=O)N1[C@H](C(=O)N[C@@H](Cc2ccc(I)cc2)C(=O)N2CCC[C@H]2C(=O)N[C@H](Cc2ccc(-c3ccccc3)cc2)C(=O)O)C[C@@H]2CCCC[C@@H]21` [compound 94] the pEC50 (human APJ receptor) was 8.87 and the pEC50 (rat APJ receptor) was 8.88.

Reference: patent US11807693B2 (priority 2014, dated 2023)
